CycPeptMPDB entries from one study

Data: CycPeptMPDB; original report Furukawa et al. 2016, doi:10.1021/acs.jmedchem.6b01246.

PAMPA measures passive passage through an artificial lipid membrane. Permeability is given as log10 of P in cm/s; higher (less negative) is more permeable.

SMILES	PAMPA (log10 cm/s)
CCCC[C@@H]1NC(=O)[C@H](CC(C)C)N(C)C(=O)CN(CC2CCCCC2)C(=O)[C@@H](Cc2ccccc2)NC(=O)CN(CC)C(=O)[C@@H]2CCCN2C1=O	-5.10
CCCC[C@@H]1NC(=O)[C@H](CC(C)C)NC(=O)CN(CC2CCOCC2)C(=O)[C@@H](C)NC(=O)CN(CC)C(=O)[C@@H]2CCCN2C1=O	-8.88
CCCCCN1CC(=O)N(C)[C@@H](CC(C)C)C(=O)N[C@@H](CCCC)C(=O)N2CCC[C@@H]2C(=O)N(CC)CC(=O)N[C@H](Cc2ccccc2)C1=O	-5.34
CCCC[C@@H]1NC(=O)[C@@H](CC(C)C)N(C)C(=O)CN(CC2CCCCC2)C(=O)[C@H](Cc2ccccc2)NC(=O)CN(CCCOC(C)C)C(=O)[C@@H]2CCCN2C1=O	-5.35
CCCC[C@@H]1NC(=O)[C@@H](CC(C)C)NC(=O)CN(CC2CCCCC2)C(=O)[C@@H](C)NC(=O)CN(CC)C(=O)[C@@H]2CCCN2C1=O	-6.34
CCCC[C@@H]1NC(=O)[C@H](CC(C)C)N(C)C(=O)CN(CC2CCOCC2)C(=O)[C@H](C)NC(=O)CN(CCCOC(C)C)C(=O)[C@H]2CCCN2C1=O	-6.19
CCCC[C@@H]1NC(=O)[C@@H](CC(C)C)NC(=O)CN(CC2CCOCC2)C(=O)[C@@H](Cc2ccccc2)NC(=O)CN(CCCOC(C)C)C(=O)[C@H]2CCCN2C1=O	-5.58
CCCC[C@@H]1NC(=O)[C@H](CC(C)C)N(C)C(=O)CN(CC2CCCCC2)C(=O)[C@H](C)NC(=O)CN(CCCOC(C)C)C(=O)[C@H]2CCCN2C1=O	-4.81
CCCC[C@@H]1NC(=O)[C@H](CC(C)C)N(C)C(=O)CN(CC2CCOCC2)C(=O)[C@@H](Cc2ccccc2)NC(=O)CN(Cc2ccc3c(c2)OCO3)C(=O)[C@H]2CCCN2C1=O	-6.27
CCCC[C@@H]1NC(=O)[C@H](CC(C)C)N(C)C(=O)CN(CC2CCCCC2)C(=O)[C@H](Cc2ccccc2)NC(=O)CN(Cc2ccc3c(c2)OCO3)C(=O)[C@H]2CCCN2C1=O	-7.54
CCCC[C@@H]1NC(=O)[C@@H](CC(C)C)N(C)C(=O)CN(CC2CCCCC2)C(=O)[C@H](C)NC(=O)CN(CC)C(=O)[C@@H]2CCCN2C1=O	-5.01
CCCC[C@@H]1NC(=O)[C@H](CC(C)C)N(C)C(=O)CN(CC2CCOCC2)C(=O)[C@@H](C)NC(=O)CN(Cc2ccc3c(c2)OCO3)C(=O)[C@@H]2CCCN2C1=O	-6.54
CCCC[C@@H]1NC(=O)[C@@H](CC(C)C)N(C)C(=O)CN(CC2CCOCC2)C(=O)[C@H](C)NC(=O)CN(Cc2ccc3c(c2)OCO3)C(=O)[C@@H]2CCCN2C1=O	-5.54
CCCCCN1CC(=O)N[C@H](CC(C)C)C(=O)N[C@@H](CCCC)C(=O)N2CCC[C@H]2C(=O)N(Cc2ccc3c(c2)OCO3)CC(=O)N[C@@H](C)C1=O	-5.07

The last 2 entries again:

SMILES	PAMPA (log10 cm/s)
CCCC[C@@H]1NC(=O)[C@@H](CC(C)C)N(C)C(=O)CN(CC2CCOCC2)C(=O)[C@H](C)NC(=O)CN(Cc2ccc3c(c2)OCO3)C(=O)[C@@H]2CCCN2C1=O	-5.54
CCCCCN1CC(=O)N[C@H](CC(C)C)C(=O)N[C@@H](CCCC)C(=O)N2CCC[C@H]2C(=O)N(Cc2ccc3c(c2)OCO3)CC(=O)N[C@@H](C)C1=O	-5.07

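Conditions beyond the assay type are not listed; see the original paper. The list need not hold all peptides of the study. Entries at the database's floor value (log10 P of -10) are not listed.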